Earlier results on one molecule are cited in US10792281B2 (priority 2014, dated 2020).

For this data set the following is noted: approximately one week.

Molecules are shown by their SMILES.

In the case of `CC(C)(O)c1ccccc1CC[C@@H](SCC1(CC(=O)O)CC1)c1cccc(/C=C/c2ccc3ccc(Cl)cc3n2)c1` [montelukast], the “doses without clinically relevant side effects (safety studies)” value was “up to 900 mg/day”.
